Experiment: Phase 1 study pharmacokinetics in patients with advanced malignancies
Conditions: doses 4.4-190 mg/m^2

**Q.** For `Cc1cc(C)c(/C=C2\C(=O)Nc3ccccc32)[nH]1` [3-[(2,4-dimethylpyrrol-5-yl)methylidenyl]-2-indolinone], which “clearance from the systemic circulation, mean” value is on record?
**A.** Its value is 1857±1016 liters of plasma per day.
